Experiments:
Type in all cases: cell-based
[1] = molecular target: T1, rat N-type channels (α1B+α2δ+β1b subunits) (Rattus norvegicus, UniProt Q02294); experiment: Whole cell patch clamp, N-type calcium channel block in HEK 293 cells
T1 construct: expressed in transfected cells
Method: (§1) Antagonist activity was measured using whole cell patch recordings on human embryonic kidney cells either stably or transiently expressing rat N-type channels (α1B+[…]+β1b subunits) with 5 mM barium as a charge carrier. Alternatively, cells either stably or transiently expressing rat L-type channels (α1C+α2δ+β1b cDNA subunits) and P/Q-type channels (α1A+α2δ+β1b cDNA subunits)
HEK 293 cells were transfected by a standard calcium-phosphate-DNA coprecipitation method using the rat α1B+β1b+α2δ N-type calcium channel subunits in a vertebrate expression vector (for example, see Current Protocols in Molecular Biology).
(§2) After an incubation period of from 24 to 72 hrs the culture medium was removed and replaced with external recording solution (see below). Whole cell patch clamp experiments were performed using an Axopatch 200B amplifier (Axon Instruments, Burlingame, Calif.) linked to an IBM compatible personal computer equipped with pCLAMP software. […] Current data shown were elicited by a train of 100 ms test pulses at 0.066 Hz from −100 mV and/or −80 mV to various potentials (min. −20 mV, max. +30 mV). Drugs were perfused directly into the vicinity of the cells using a microperfusion system.
Normalized dose-response curves were fit (Sigmaplot 4.0, SPSS Inc., Chicago, Ill.) by the Hill equation to determine IC50 values. Steady-state inactivation curves were plotted as the normalized test pulse amplitude following 5 s inactivating prepulses at +10 mV increments.
Alternatively, N-type calcium channels (α1B+α2δ+β1b cDNA subunits), L-type channels (α1C+α2δ+β1b cDNA subunits) and P/Q-type channels (α1A+α2δ+β1b cDNA subunits) were transiently expressed in HEK 293 cells. Briefly, cells were cultured in Dulbecco's modified eagle medium (DMEM) supplemented with 10% fetal bovine serum, 200 U/ml penicillin and 0.2 mg/ml streptomycin at 37° C. with 5% CO2. […] At 12 hours the medium was replaced and the cells transiently transfected using a standard calcium phosphate protocol and the appropriate calcium channel cDNAs. Fresh DMEM was supplied and the cells transferred to 28° C./5% CO2.
Whole cell patch clamp experiments were performed using an Axopatch 200B amplifier (Axon Instruments, Burlingame, Calif.) linked to a personal computer equipped with pCLAMP software. […] Currents were typically elicited from a holding potential of −80 mV to +10 mV using Clampex software (Axon Instruments). […] The compounds were then applied during the low frequency pulse trains for two to three minutes to assess tonic block, and subsequently the pulse frequency was increased to 0.2 Hz to assess frequency dependent block. Data were analyzed using Clampfit (Axon Instruments) and SigmaPlot 4.0 (Jandel Scientific).

Protein sequences, listed by entry. Tags and fused reporters are not part of them. Lines headed by an entry give the natural chain unless they say otherwise; changes in a name come on top.
UniProt P22002, whole entry: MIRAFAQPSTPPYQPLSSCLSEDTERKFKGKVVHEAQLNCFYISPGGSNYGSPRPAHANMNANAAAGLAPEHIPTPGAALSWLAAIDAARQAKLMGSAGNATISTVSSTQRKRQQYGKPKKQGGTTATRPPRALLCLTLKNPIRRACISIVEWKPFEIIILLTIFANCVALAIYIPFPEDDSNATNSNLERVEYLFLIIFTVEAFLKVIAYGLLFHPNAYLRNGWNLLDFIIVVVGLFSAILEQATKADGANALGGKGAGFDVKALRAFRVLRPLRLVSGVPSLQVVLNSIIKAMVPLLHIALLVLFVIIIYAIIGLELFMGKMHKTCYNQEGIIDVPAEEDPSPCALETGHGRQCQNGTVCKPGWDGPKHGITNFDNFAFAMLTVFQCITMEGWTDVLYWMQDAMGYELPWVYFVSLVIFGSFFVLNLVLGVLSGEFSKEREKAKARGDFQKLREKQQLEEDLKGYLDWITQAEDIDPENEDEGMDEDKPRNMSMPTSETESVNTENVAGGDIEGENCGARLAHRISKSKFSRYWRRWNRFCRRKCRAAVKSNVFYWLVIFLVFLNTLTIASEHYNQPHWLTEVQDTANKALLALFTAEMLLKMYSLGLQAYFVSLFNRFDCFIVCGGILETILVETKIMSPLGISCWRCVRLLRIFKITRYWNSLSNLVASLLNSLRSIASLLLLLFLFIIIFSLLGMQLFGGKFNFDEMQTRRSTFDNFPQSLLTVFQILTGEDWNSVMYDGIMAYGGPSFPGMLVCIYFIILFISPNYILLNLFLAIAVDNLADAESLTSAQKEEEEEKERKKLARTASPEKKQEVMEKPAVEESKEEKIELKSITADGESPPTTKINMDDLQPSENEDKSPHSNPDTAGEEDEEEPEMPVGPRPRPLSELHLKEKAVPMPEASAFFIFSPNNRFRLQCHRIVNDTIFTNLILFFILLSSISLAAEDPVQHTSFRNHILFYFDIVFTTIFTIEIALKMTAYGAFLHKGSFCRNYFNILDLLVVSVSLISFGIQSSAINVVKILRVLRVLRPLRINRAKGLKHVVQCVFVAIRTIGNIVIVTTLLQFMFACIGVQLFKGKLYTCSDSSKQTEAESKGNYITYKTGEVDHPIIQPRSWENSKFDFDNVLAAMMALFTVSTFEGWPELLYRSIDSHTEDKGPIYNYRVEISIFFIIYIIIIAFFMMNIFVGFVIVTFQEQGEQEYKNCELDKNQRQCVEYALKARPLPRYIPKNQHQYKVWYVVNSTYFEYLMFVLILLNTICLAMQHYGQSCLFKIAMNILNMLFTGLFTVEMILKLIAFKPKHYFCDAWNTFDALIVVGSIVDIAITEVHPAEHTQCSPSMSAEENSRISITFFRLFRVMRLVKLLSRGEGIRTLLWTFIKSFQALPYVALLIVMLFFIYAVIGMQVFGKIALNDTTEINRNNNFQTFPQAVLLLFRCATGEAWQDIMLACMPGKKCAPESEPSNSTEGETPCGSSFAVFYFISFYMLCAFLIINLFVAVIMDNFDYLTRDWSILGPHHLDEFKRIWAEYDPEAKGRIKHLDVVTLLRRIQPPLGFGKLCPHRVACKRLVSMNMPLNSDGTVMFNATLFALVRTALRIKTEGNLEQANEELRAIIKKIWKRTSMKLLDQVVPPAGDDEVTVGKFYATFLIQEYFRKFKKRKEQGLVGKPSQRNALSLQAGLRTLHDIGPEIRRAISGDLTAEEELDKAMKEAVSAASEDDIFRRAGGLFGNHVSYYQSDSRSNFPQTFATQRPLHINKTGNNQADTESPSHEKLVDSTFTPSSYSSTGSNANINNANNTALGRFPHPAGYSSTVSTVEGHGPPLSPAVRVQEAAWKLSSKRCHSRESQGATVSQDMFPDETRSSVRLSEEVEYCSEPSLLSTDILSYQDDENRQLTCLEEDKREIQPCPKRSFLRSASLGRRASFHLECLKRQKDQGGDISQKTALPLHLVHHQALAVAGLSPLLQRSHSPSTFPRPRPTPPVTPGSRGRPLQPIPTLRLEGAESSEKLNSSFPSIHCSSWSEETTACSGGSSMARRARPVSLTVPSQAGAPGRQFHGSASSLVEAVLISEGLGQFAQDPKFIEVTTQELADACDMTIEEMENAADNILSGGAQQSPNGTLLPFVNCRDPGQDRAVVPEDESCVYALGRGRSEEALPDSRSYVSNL
UniProt O43497: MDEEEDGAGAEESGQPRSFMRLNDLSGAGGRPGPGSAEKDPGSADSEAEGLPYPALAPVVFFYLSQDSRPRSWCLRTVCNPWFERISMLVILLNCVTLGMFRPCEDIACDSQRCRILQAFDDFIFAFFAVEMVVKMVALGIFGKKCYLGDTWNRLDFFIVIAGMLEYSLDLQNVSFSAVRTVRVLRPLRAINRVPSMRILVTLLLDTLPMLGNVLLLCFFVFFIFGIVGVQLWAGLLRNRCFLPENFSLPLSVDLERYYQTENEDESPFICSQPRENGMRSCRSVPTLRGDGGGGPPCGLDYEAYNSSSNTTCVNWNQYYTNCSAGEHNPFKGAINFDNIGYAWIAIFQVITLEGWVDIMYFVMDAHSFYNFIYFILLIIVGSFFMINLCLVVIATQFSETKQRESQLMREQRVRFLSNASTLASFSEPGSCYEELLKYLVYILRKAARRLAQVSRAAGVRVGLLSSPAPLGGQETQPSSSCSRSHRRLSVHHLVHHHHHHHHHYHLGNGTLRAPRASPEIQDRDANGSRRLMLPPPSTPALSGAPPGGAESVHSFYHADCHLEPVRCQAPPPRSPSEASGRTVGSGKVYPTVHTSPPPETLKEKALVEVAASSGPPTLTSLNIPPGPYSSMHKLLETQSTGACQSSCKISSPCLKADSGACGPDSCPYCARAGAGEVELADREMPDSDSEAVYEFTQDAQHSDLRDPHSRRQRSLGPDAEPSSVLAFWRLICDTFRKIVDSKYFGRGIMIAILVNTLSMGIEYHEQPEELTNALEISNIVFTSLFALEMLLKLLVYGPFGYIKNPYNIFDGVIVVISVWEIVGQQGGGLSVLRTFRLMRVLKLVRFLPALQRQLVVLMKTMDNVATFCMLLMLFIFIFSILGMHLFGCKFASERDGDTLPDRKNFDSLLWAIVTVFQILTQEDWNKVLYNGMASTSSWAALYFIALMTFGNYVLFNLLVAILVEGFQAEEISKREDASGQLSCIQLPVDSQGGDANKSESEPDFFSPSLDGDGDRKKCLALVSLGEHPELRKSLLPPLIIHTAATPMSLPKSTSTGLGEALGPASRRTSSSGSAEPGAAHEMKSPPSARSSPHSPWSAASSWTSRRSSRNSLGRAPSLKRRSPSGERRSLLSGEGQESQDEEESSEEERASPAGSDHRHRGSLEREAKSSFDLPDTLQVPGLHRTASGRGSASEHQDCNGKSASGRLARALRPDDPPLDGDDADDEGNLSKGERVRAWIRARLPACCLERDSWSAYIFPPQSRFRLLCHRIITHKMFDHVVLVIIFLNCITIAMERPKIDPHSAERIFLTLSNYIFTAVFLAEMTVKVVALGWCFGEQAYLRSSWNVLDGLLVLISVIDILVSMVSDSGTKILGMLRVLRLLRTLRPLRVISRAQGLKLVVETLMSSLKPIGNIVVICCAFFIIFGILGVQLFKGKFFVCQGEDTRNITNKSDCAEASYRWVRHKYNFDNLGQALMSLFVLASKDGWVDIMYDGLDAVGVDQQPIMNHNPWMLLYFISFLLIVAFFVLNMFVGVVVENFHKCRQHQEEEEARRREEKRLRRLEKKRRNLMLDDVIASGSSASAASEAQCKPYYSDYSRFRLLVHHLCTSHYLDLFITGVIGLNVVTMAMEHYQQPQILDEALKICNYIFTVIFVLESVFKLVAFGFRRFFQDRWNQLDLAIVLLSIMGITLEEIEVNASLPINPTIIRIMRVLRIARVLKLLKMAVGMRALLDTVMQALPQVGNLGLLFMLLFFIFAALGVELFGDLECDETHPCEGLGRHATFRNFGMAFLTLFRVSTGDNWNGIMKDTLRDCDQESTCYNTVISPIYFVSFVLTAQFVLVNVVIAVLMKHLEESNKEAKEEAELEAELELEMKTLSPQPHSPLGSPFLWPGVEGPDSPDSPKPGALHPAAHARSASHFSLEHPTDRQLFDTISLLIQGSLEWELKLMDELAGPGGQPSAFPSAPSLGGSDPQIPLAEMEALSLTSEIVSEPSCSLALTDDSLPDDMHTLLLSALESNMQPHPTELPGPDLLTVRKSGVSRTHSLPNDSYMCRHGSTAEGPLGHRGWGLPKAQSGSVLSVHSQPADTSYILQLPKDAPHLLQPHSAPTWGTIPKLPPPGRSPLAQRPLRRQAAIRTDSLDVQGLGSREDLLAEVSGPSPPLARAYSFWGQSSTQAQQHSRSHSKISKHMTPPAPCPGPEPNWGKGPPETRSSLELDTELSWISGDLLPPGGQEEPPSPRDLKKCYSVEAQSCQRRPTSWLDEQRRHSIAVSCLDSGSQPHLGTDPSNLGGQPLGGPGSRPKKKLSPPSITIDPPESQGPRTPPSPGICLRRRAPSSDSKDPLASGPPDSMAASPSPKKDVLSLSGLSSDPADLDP

[2] = molecular target: T2, P/Q-type channels (α1A+α2δ+β1b cDNA subunits) (Rattus norvegicus, UniProt P54282); experiment: Whole cell patch clamp, P/Q-type calcium channel block in HEK 293 cells
T2 construct: expressed in transfected cells
Method: as §1, §2
(§3) Normalized dose-response curves were fit (Sigmaplot 4.0, SPSS Inc., Chicago, Ill.) by the Hill equation to determine IC50 values. […]
(§4) Whole cell patch clamp experiments were performed using an Axopatch 200B amplifier (Axon Instruments, Burlingame, Calif.) linked to a personal computer equipped with pCLAMP software. […] Data were analyzed using Clampfit (Axon Instruments) and SigmaPlot 4.0 (Jandel Scientific).

[3] = molecular target: T3, rat L-type channels (α1C+α2δ+β1b cDNA subunits) (Rattus norvegicus, UniProt P22002); experiment: Whole cell patch clamp, L-type calcium channel block in HEK 293 cells
T3 construct: expressed in transfected cells
Method: as §1, §2, §3, §4

[4] = molecular target: T4, human α1G subunits (T-type channels) (Homo sapiens, UniProt O43497); experiment: Block of α1G T-type channels, patch clamp in HEK cell lines
T4 construct: expressed in transfected cells
Method: Standard patch-clamp techniques were employed to identify blockers of T-type currents. Briefly, previously described HEK cell lines stably expressing human α1G subunits were used for all the recordings (passage #: 4-20, 37° C., 5% CO2). To obtain T-type currents, plastic dishes containing semi-confluent cells were positioned on the stage of a ZEISS AXIOVERT S100 microscope after replacing the culture medium with external solution (see below). Whole-cell patches were obtained using pipettes (borosilicate glass with filament, O.D.: 1.5 mm, I.D.: 0.86 mm, 10 cm length), fabricated on a SUTTER P-97 puller with resistance values of ˜5 MΩ (see below for internal medium).
Test compounds were dissolved in external solution, 0.1-0.01% DMSO. After ˜10 min rest, they were applied by gravity close to the cell using a WPI microfil tubing. The “non-inactivating” pre-pulse was used to examine the resting block of a compound. The “inactivating” protocol was employed to study voltage-dependent block. However, the initial data were obtained using the non-inactivating protocol.

Q: How did the “specificity for N-type channels as compared to L and P/Q-type” value [1] turn out when `COc1c(C(C)(C)C)cc(C(=O)N2CCN(C(=O)CCCCC(c3ccc(F)cc3)c3ccc(F)cc3)CC2)cc1C(C)(C)C` [Compound P18, 1-[4-(3,5-di-tert-butyl-4-methoxy-benzoyl)-piperazi-1-yl]-6,6-bis-(4-fluoro-phenyl)-hexan-1-one] was run?
A: selectively block N-type channels

Q: And the IC50 ([1]; IC50 for N-type Calcium Channel Block (0.067 Hz))?
A: 0.147 µM

Q: And the IC50 ([1]; IC50 for N-type Calcium Channel Block (0.2 Hz))?
A: 0.089 µM

Q: And the IC50 ([1]; N-type IC50)?
A: 0.11 µM

Q: And the IC50 [2]?
A: 2.17 µM

Q: What about the IC50 [3] of the same molecule?
A: > 100 µM

Q: And the IC50 [4]?
A: 0.022 µM
